Measurements reported in patent publication US20190125701A1 (priority 2016, published 2019).

Test system: hCMV
Assay: Immunostaining for hCMV gB in human dermal fibroblasts
Details: 1 mM for 24 hrs prior to viral challenge, MOI 1, mean±SEM, n=5

Structure (SMILES): CCCC(CCC)C(N)=O [VPD, 2-propylpentanamide]
- hCMV gB immunoreactive infected cells compared to control: 56%±7%
